The assay has as its system MCF-7 cells. Briefly: Growth factor stimulated cell proliferation in serum-free medium. The class given is cell-based. The method, then:
Cell proliferation studies were conducted in serum-free medium as indicated. Cells were plated in 96-well tissue culture plates (Falcon #35-3075, Becton Dickinson, N.J.) at 2000 to 6000 cells per well, as appropriate for a cell line, and then grown overnight (15 to 18 hrs). For the cell proliferation studies done in serum containing medium, the cells were then treated with or without compounds and allowed to grow for 3 to 5 days. […] After plating cells in serum, the cells were grown overnight (15 to 20 hrs), then the cells were switched to serum-free medium and grown for 24 to 48 hrs (serum-starvation). […] Cell proliferation was quantified by crystal violet dye method as described previously (Sugarman et al., 1987). Briefly, the culture medium was decanted, the cells washed once with PBS, followed by addition of 50 μl/well 0.5% (w/v) crystal violet dye (Sigma-Aldrich, St Loius, Mo.) in methanol and incubation for 20 min. The plates were washed with water 3-times and then air-dried overnight. The cell-bound dye was eluted with 100 μl/well Sorenson's buffer (25 mM sodium citrate in 50% ethanol) for 15 min on a plate shaker. The plate was then read on a plate reader at 540 nm wavelength for absorbance, which was directly proportional to the amount of cells in the well.

For “RB200h: heterodimer: full length HER 1 ECD linked to full length HER 3 ECD via Fc domain (HER1-621/Fc and HER3-621/Fc with His tag)”, the “effect on NRG1β1 stimulated cell proliferation” value is “completely blocked”.
